Test system: pdr5 ypt1^ts cells
Type: cell-based, yeast
Conditions: Table 2; 6.25 μM compound; 37° C.; background (0 μM) 0.058

## NIMODIPINE [reference compound]
  optical density, ypt1-ts, 6.25: 0.116
